# Results as given in patent US20110053923A1, “CHEMICAL COMPOUNDS 610” (AstraZeneca, priority 2008, published 2011).
# Molecular target: mTOR (Homo sapiens, UniProt P42345)
# Experiment: Enzyme - mTOR Kinase Assay (Echo);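 also: enzyme expressed in HEK293 cells, 2 h incubation at room temperature, read-out is phosphorylation of a biotinylated peptide substrate detected with an anti-phospho p70 S6 Kinase (T389) antibody, inhibition lowers signal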
# Type: biochemical
smiles,measurement,value
"COc1cc(-c2nc(N3CCOCC3)cc(C3(S(C)(=O)=O)CC3)n2)c2cc[nH]c2c1 [Example 1.04, 6-Methoxy-4-{4-[1-(methylsulfonyl)cyclopropyl]-6-morpholin-4-ylpyrimidin-2-yl}-1H-indole]",IC50,55.2 nM
